This data set in a line: Time-course stability of spiked peptide hormones in plasma (MALDI-TOF MS and/or ELISA). The note with it: for half-life at 0.4 μM: human, plasma, t ½, RT (24 ±1°C), MALDI-TOF MS only, spiked ~0.4 μM, 0-96 h, peak ratio to control peptide, first-order. On the procedure:
For whole blood, the tests were carried out right after collection. […] For serum samples, the tubes were allowed to clot at RT for 60 minutes and then centrifuged under the same conditions as for plasma tubes. The collected plasma and serum samples were either used immediately or frozen immediately at -80°C until later usage.
The spiked samples were incubated in a temperature-controlled chamber at RT (25 ± 1°C) or on ice. […] For a semi-quantitative measurement, an appropriate control peptide was also included in the quenching solution. […] The clear supernatants were dried in a CentriVap Concentrator (Labconco, Kansas City, MO); the dried powders were then re-suspended in 10% ACN, 0.1% TFA solution, followed by Zip-Tip C18 extraction. A 1.0 μL aliquot of the eluted peptide solution was mixed with 1.0 μL of α-Cyano-4-hydroxycinnamic acid (CHCA:10 mg/mL in 50% ACN solution) as the matrix, and 1.5 μL mixture was spotted onto a MALDI target, air-dried, and analyzed by MALDI-TOF MS (Ultraflex II, Bruker Daltonics Inc., Billerica, MA).
Sample preparation procedures for Ab-based stability studies were similar to those in the time-course MALDI-TOF MS analysis. […] All Ab-based analyses were carried out with either individual or pooled samples from 3–4 subjects and with three replicates of each.
Finally, the plate was read at an excitation/emission wavelength of 355 nm/460 nm in a plate reader purchased from Tecan US (Morrisville, NC). […] The absorbance of each sample was measured at 450 nm and 590 nm in the plate reader.

The structures appear in SMILES notation.

Consider one compound from publication PMC4519045 (PLoS ONE, 2015).

What is called half-life is the time in which the quantity being followed falls by half.

With `CC[C@H](C)[C@H](NC(=O)[C@H](CO)NC(=O)[C@H](Cc1ccc(O)cc1)NC(=O)[C@H](CC(=O)O)NC(=O)[C@H](CO)NC(=O)[C@@H](NC(=O)[C@H](Cc1ccccc1)NC(=O)[C@@H](NC(=O)CNC(=O)[C@H](CCC(=O)O)NC(=O)[C@H](C)NC(=O)[C@@H](N)Cc1ccc(O)cc1)[C@@H](C)O)[C@@H](C)CC)C(=O)N[C@@H](C)C(=O)N[C@@H](CCSC)C(=O)N[C@@H](CC(=O)O)C(=O)N[C@@H](CCCCN)C(=O)N[C@H](C(=O)N[C@@H](Cc1c[nH]cn1)C(=O)N[C@@H](CCC(N)=O)C(=O)N[C@@H](CCC(N)=O)C(=O)N[C@@H](CC(=O)O)C(=O)N[C@@H](Cc1ccccc1)C(=O)N[C@H](C(=O)N[C@@H](CC(N)=O)C(=O)N[C@@H](Cc1c[nH]c2ccccc12)C(=O)N[C@@H](CC(C)C)C(=O)N[C@@H](CC(C)C)C(=O)N[C@@H](C)C(=O)N[C@@H](CCC(N)=O)C(=O)N[C@@H](CCCCN)C(=O)NCC(=O)N[C@@H](CCCCN)C(=O)N[C@@H](CCCCN)C(=O)N[C@@H](CC(N)=O)C(=O)N[C@@H](CC(=O)O)C(=O)N[C@@H](Cc1c[nH]c2ccccc12)C(=O)N[C@@H](CCCCN)C(=O)N[C@@H](Cc1c[nH]cn1)C(=O)N[C@@H](CC(N)=O)C(=O)N[C@H](C(=O)N[C@H](C(=O)N[C@@H](CCC(N)=O)C(=O)O)[C@@H](C)O)[C@@H](C)CC)C(C)C)[C@@H](C)CC` [GIP(1–42), glucose-dependent insulinotropic polypeptide], the t½ result (P800 plasma kept at 4°C, individual or pooled samples) is reported as “greater than 96 hours”. For the same compound, the half-life at 0.4 μM by setting is: (EDTA plasma, range = different individuals) 20.6 h; (P800 plasma (protease inhibitors)) above 96 h.
